Binding of CDR-mutated scFvs to a peptide of the spike HR2 region

All variants were tested on one target, the spike HR2 peptide PDVDLGDISGINAS (SARS-CoV-2).

The variants keep the heavy chain, the linker and the frameworks of Ab-14 (scFv order VH, a 15-residue (Gly4Ser)3 linker, VL).
VH: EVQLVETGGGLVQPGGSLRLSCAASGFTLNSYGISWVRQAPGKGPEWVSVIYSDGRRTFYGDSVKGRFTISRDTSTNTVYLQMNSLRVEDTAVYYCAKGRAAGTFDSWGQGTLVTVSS
VL: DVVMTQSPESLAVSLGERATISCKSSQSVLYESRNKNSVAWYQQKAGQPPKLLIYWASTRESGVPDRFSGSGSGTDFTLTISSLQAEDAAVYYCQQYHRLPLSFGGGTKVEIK

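The parent was found by panning a naive human phage display library on the peptide. This is the validation round: designs drawn from the data on random variants, tested in the same kind of assay. Their group label is 14L_GP_Gen (GP: Gaussian process model; Gen: genetic algorithm; a sequence that several methods proposed may carry one label only). In AlphaSeq, yeast of one mating type display the scFv and yeast of the other type display the target. After mating in shaken culture at 30 °C for 16 h, diploids were selected and their barcode pairs sequenced. Each replicate has its own calibration line, from reference interactions of the BCL2 family. The assay was run in six technical replicates.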

Changes read parent residue, position, new residue, counted from the first residue of the VL shown.
The read-out is the apparent dissociation constant on a log10 scale (nM): the lower, the stronger.
The mean shown is taken over the replicates in which the pair was detected.

{"changes": "S25L+S26Q+V29D+W56N", "replicates, log10 nM": "-0.23 / -0.56 / -0.37 / -0.55 / -0.23 / -0.32", "mean log10 Kd (nM)": "-0.38", "signal with controls": "1/18 (2.71)"}
{"changes": "S25V+V29W+N35M+W56N", "replicates, log10 nM": "-0.23 / -0.37 / -0.33 / -0.93 / 0.26 / -0.77", "mean log10 Kd (nM)": "-0.39", "signal with controls": "0/18"}
{"changes": "S25F+V29Y+S38A+W56N+T59Q", "replicates, log10 nM": "-0.51 / -0.36 / -0.35 / -0.57 / -0.41 / -0.37", "mean log10 Kd (nM)": "-0.43", "signal with controls": "2/18 (2.81)"}
{"changes": "S25L+S26P+V29D+W56N+T59Q", "replicates, log10 nM": "-0.15 / -0.21 / 0.00 / -0.08 / -0.07 / -0.05", "mean log10 Kd (nM)": "-0.09", "signal with controls": "0/18"}
{"changes": "S25L+S26Q+V29W+W56N+T59Q+S62Q", "replicates, log10 nM": "-0.19 / -0.11 / -0.10 / -0.57 / -0.45 / -0.11", "mean log10 Kd (nM)": "-0.25", "signal with controls": "1/18 (2.96)"}
{"changes": "S25L+V29W+W56N+E61C+S62D", "replicates, log10 nM": "0.11 / -0.09 / -0.03 / -0.16 / -0.25 / 0.02", "mean log10 Kd (nM)": "-0.07", "signal with controls": "2/18 (2.68)"}
{"changes": "S25L+S33E+W56N+T59Q+S62V", "replicates, log10 nM": "0.04 / 0.14 / -0.21 / -0.23 / -0.17 / 0.13", "mean log10 Kd (nM)": "-0.05", "signal with controls": "3/18 (2.60)"}
{"changes": "S25L+S26P+W56E+E61S", "replicates, log10 nM": "-0.08 / -0.99 / -0.04 / -0.52 / -0.75 / 0.38", "mean log10 Kd (nM)": "-0.33", "signal with controls": "0/18"}
{"changes": "S25L+S26Q+V29E+W56Q+E61L", "replicates, log10 nM": "0.99 / 0.67 / 0.43 / 0.69 / 0.86 / 0.92", "mean log10 Kd (nM)": "0.76", "signal with controls": "0/18"}
{"changes": "S25L+S38N+W56D+E61M", "replicates, log10 nM": "-0.51 / -0.66 / -0.71 / -0.79 / -0.74 / -0.39", "mean log10 Kd (nM)": "-0.64", "signal with controls": "0/18"}
{"changes": "S25F+S26Q+V29W+W56N+E61L", "replicates, log10 nM": "0.11 / -0.10 / -0.24 / -0.49 / -0.16 / -0.06", "mean log10 Kd (nM)": "-0.16", "signal with controls": "1/18 (2.48)"}
{"changes": "S25L+S28L+V29D+W56N", "replicates, log10 nM": "-0.17 / -0.12 / -0.37 / -0.42 / -0.51 / -0.07", "mean log10 Kd (nM)": "-0.28", "signal with controls": "1/18 (3.15)"}
{"changes": "S25L+V29E+W56E+Q96D", "replicates, log10 nM": "0.31 / 0.28 / 0.14 / 0.30 / 0.19 / 0.50", "mean log10 Kd (nM)": "0.29", "signal with controls": "0/18"}
{"changes": "S26Q+V29E+L30P+W56N", "replicates, log10 nM": "0.14 / 0.07 / -0.01 / -0.03 / 0.29 / 0.49", "mean log10 Kd (nM)": "0.16", "signal with controls": "0/18"}
{"changes": "S25L+S26M+V29Y+W56N+T59Q", "replicates, log10 nM": "-0.23 / -0.40 / -0.51 / -0.67 / -0.46 / -0.32", "mean log10 Kd (nM)": "-0.43", "signal with controls": "0/18"}
{"changes": "S25V+W56E+S62M", "replicates, log10 nM": "-0.04 / -0.39 / -0.44 / -0.48 / -0.38 / -0.32", "mean log10 Kd (nM)": "-0.34", "signal with controls": "0/18"}
{"changes": "S25L+S26D+W56G+E61C", "replicates, log10 nM": "-0.08 / -0.27 / -0.12 / -0.28 / -0.26 / -0.01", "mean log10 Kd (nM)": "-0.17", "signal with controls": "0/18"}
{"changes": "S25L+V29W+N35A+W56N", "replicates, log10 nM": "-0.43 / -0.16 / -0.15 / -0.64 / 0.02 / -0.22", "mean log10 Kd (nM)": "-0.26", "signal with controls": "2/18 (2.42)"}
{"changes": "S25L+V29M+K36S+W56N+E61M", "replicates, log10 nM": "0.48 / 0.11 / -0.24 / 0.06 / 0.19 / 0.16", "mean log10 Kd (nM)": "0.13", "signal with controls": "1/18 (3.96)"}
{"changes": "S25V+V29W+W56Q", "replicates, log10 nM": "0.04 / -0.08 / -0.19 / -0.14 / -0.32 / -0.05", "mean log10 Kd (nM)": "-0.12", "signal with controls": "1/18 (2.50)"}
{"changes": "S25L+S26Q+W56S+E61C", "replicates, log10 nM": "-0.12 / -0.12 / -0.10 / -0.24 / -0.20 / -0.01", "mean log10 Kd (nM)": "-0.13", "signal with controls": "0/18"}
{"changes": "S25L+V29H+W56E+S62V", "replicates, log10 nM": "0.36 / -0.11 / 0.22 / 0.07 / 0.51 / 0.25", "mean log10 Kd (nM)": "0.22", "signal with controls": "1/18 (2.44)"}
{"changes": "S25L+S26V+V29W+W56N+T59Q+E61L", "replicates, log10 nM": "0.33 / 0.13 / 0.46 / 0.10 / 0.10 / 0.26", "mean log10 Kd (nM)": "0.23", "signal with controls": "2/18 (2.78)"}
{"changes": "S25L+W56N+T59Q+E61W", "replicates, log10 nM": "0.05 / 0.06 / 0.12 / -0.10 / -0.13 / 0.16", "mean log10 Kd (nM)": "0.02", "signal with controls": "3/18 (3.33)"}
{"changes": "S25L+V29E+W56E+T59Q+Q96D", "replicates, log10 nM": "-0.03 / 0.10 / -0.27 / -0.22 / -0.22 / 0.01", "mean log10 Kd (nM)": "-0.11", "signal with controls": "0/18"}

The 4 strongest on average among those seen in every replicate, once more:

changes,"replicates, log10 nM",mean log10 Kd (nM),signal with controls
S25L+S38N+W56D+E61M,-0.51 / -0.66 / -0.71 / -0.79 / -0.74 / -0.39,-0.64,0/18
S25L+S26M+V29Y+W56N+T59Q,-0.23 / -0.40 / -0.51 / -0.67 / -0.46 / -0.32,-0.43,0/18
S25F+V29Y+S38A+W56N+T59Q,-0.51 / -0.36 / -0.35 / -0.57 / -0.41 / -0.37,-0.43,2/18 (2.81)
S25V+V29W+N35M+W56N,-0.23 / -0.37 / -0.33 / -0.93 / 0.26 / -0.77,-0.39,0/18

The range of this assay differs from that of the first round, and the authors advise against merging the two.
The parent sequence was in this pool as ten entries: three were never detected, three once, and four in most replicates, with averages from 0.34 to 2.37.
In the paper, a design with two or fewer of six values counts as a poor binder.
Three control strains display no target. For all light chain designs, 4% of the pairings with them gave a signal, with a median of 2.64 and one signal in twenty below 1.59, so weak values seen in few replicates may be background. The control count says in how many pairings with the empty strains this scFv gave a signal, with their mean in brackets.

Reference: Li et al. 2023, doi:10.1038/s41467-023-39022-2. File: FLAb, binding data.